# Yeast mating assay 2: variants of the scFv Ab-95

The measurements come from Engelhart et al. 2022 (doi:10.1038/s41597-022-01779-4) through the FLAb antibody collection.

Antigen: PDVDLGDISGINAS, a 14-residue peptide of the SARS-CoV-2 spike HR2 region.

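The starting antibody came from a phage panning campaign against this peptide. The library (AAYL52) carries one to three amino acid substitutions per variant, with no insertions or deletions. In AlphaSeq, yeast of one mating type display the scFv and yeast of the other type display the target. Mating (16 h, 30 °C) was followed by selection of diploids and sequencing of their barcodes. The ratio of observed to expected reads was calibrated, replicate by replicate, on BCL2-family standards whose Kd was known from biolayer interferometry. The assay was run in three technical replicates.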

The variants keep the heavy chain, the linker and the frameworks of Ab-95 (scFv order VH, a (GGGGS)3 linker, VL).
VH: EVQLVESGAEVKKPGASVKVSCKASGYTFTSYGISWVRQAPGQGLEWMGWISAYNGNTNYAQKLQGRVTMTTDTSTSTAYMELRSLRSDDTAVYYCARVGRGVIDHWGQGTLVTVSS
VL: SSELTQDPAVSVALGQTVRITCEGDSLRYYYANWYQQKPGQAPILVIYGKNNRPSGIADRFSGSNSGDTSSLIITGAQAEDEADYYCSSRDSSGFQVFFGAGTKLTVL

Substitutions are numbered in sequence along the VL above, starting at 1 (not Kabat). Every variant below is changed at D91 of the VL (sequential numbering). Values are apparent Kd, the geometric mean of the replicates that gave a signal; lower means stronger binding. "no signal" means that the variant was in the library but no mating with the target was seen in any replicate; the authors take this as a sign of poor binding, and no number exists. Three control strains display no target. For library AAYL52, 28% of the pairings with them gave a signal, with a median of 8.2 µM and one signal in twenty below 800 nM, so weak values seen in few replicates may be background. The control count says in how many pairings with the empty strains this scFv gave a signal.

The variant N33V+R53I+D91K gave no signal (0 of 3 replicates; controls 1 of 9). The variant R28A+Y31I+D91G showed no signal (0 of 3 replicates; controls 2 of 9). With K50P+N51D+D91Q the result was 5.7 µM (1 of 3 replicates; controls 1 of 9). With A32D+D91P+G94A the result was 22 µM (2 of 3 replicates; controls 1 of 9). The variant R28H+G49W+D91N showed no signal (0 of 3 replicates; controls 1 of 9). The variant S26C+Y30N+D91Y showed no signal (0 of 3 replicates; controls 3 of 9).

The variant R53K+D91N+F98T showed 1.3 µM (2 of 3 replicates; controls 0 of 9). For S55L+D91K+S92A, the assay gave no signal (0 of 3 replicates; controls 2 of 9). The variant G49R+N52F+D91Y gave 7.5 µM (2 of 3 replicates; controls 5 of 9). For K50C+D91E+F98A, the assay gave no signal (0 of 3 replicates; controls 1 of 9). For D25R+K50R+D91E, the assay gave 3.3 µM (1 of 3 replicates; controls 0 of 9). The variant N52A+D91E+V97H showed 1.0 µM (2 of 3 replicates; controls 2 of 9).

The variant N51C+N52Y+D91Q gave 19 µM (1 of 3 replicates; controls 1 of 9). The variant A32W+S88Q+D91A gave 17 µM (2 of 3 replicates; controls 6 of 9). With D25V+N52W+D91S the result was 24 µM (3 of 3 replicates; controls 2 of 9). The variant Y29D+D91I+Q96W gave 14 µM (3 of 3 replicates; controls 4 of 9). With L27R+K50C+D91T the result was 4.0 µM (3 of 3 replicates; controls 6 of 9). For R90S+D91Q+V97Y, the assay gave 4.5 µM (2 of 3 replicates; controls 2 of 9).

The variant Y30I+N52G+D91M gave 1.3 µM (3 of 3 replicates; controls 4 of 9). For G24K+D91F+S93N, the assay gave 23 µM (3 of 3 replicates; controls 3 of 9). For R90L+D91I+S92P, the assay gave 560 nM (3 of 3 replicates; controls 4 of 9). The variant E23Q+S26C+D91K gave 6.6 µM (2 of 3 replicates; controls 4 of 9). The variant G49C+R53L+D91L showed 19 µM (1 of 3 replicates; controls 1 of 9). For L27R+P54T+D91Y, the assay gave no signal (0 of 3 replicates; controls 0 of 9).

With G24L+D91G the result was 11 µM (1 of 3 replicates; controls 3 of 9). For P54Q+D91W+G94N, the assay gave 2.0 µM (3 of 3 replicates; controls 4 of 9). For A32P+D91W+V97I, the assay gave 560 nM (3 of 3 replicates; controls 5 of 9). With E23C+Y30E+D91F the result was no signal (0 of 3 replicates; controls 2 of 9). With A32P+P54I+D91I the result was 31 µM (1 of 3 replicates; controls 4 of 9). The variant E23D+S89M+D91N gave 2.1 µM (3 of 3 replicates; controls 1 of 9).

With Y30G+R90P+D91P the result was 22 nM (3 of 3 replicates; controls 3 of 9). The variant D25C+Y29K+D91Q showed 22 µM (1 of 3 replicates; controls 3 of 9). With Y31W+N52C+D91Q the result was 48 µM (1 of 3 replicates; controls 5 of 9). With Y30W+R90P+D91L the result was 3.6 µM (2 of 3 replicates; controls 2 of 9). For S89L+D91H+Q96N, the assay gave 1.6 µM (3 of 3 replicates; controls 2 of 9). For A32H+S88M+D91W, the assay gave 1.3 µM (1 of 3 replicates; controls 2 of 9).

The variant S26M+D91Y+S92M gave 1.9 µM (2 of 3 replicates; controls 3 of 9). The variant G49D+N51S+D91K showed 1.7 µM (1 of 3 replicates; controls 4 of 9). For G24I+Y29C+D91S, the assay gave 2.1 µM (2 of 3 replicates; controls 3 of 9). The variant S26R+D91S+S93H showed 4.8 µM (2 of 3 replicates; controls 1 of 9). The variant Y30E+D91G+Q96D showed 11 nM (3 of 3 replicates; controls 1 of 9). With N33I+D91F+G94M the result was 1.8 µM (2 of 3 replicates; controls 3 of 9).

The variant Y29P+D91R+F95C gave 1.1 µM (3 of 3 replicates; controls 1 of 9). The variant R53K+S89W+D91H showed 110 nM (3 of 3 replicates; controls 3 of 9). The variant N33D+D91C+S93H gave 2.9 µM (1 of 3 replicates; controls 2 of 9). The variant L27H+P54S+D91Q showed no signal (0 of 3 replicates; controls 0 of 9). For S55A+S88R+D91K, the assay gave no signal (0 of 3 replicates; controls 3 of 9). The variant N33I+D91L+G94T showed 2.2 µM (1 of 3 replicates; controls 0 of 9).

For E23Q+Y30A+D91W, the assay gave 400 nM (3 of 3 replicates; controls 1 of 9). The variant R28H+D91C+Q96R gave no signal (0 of 3 replicates; controls 0 of 9).

The first 7 entries again:

changes	Kd (apparent)	detected	control signals
N33V+R53I+D91K	no signal	0/3	1/9
R28A+Y31I+D91G	no signal	0/3	2/9
K50P+N51D+D91Q	5.7 µM	1/3	1/9
A32D+D91P+G94A	22 µM	2/3	1/9
R28H+G49W+D91N	no signal	0/3	1/9
S26C+Y30N+D91Y	no signal	0/3	3/9
R53K+D91N+F98T	1.3 µM	2/3	0/9